In patent US7407968B2, “Compounds” (AstraZeneca AB, priority 2003, dated 2008):
Only a part of the results on these compounds is given; other tests are left out.

By UniProt entry, the sequences of proteins in these tests, tags left out.
UniProt P21554, whole entry: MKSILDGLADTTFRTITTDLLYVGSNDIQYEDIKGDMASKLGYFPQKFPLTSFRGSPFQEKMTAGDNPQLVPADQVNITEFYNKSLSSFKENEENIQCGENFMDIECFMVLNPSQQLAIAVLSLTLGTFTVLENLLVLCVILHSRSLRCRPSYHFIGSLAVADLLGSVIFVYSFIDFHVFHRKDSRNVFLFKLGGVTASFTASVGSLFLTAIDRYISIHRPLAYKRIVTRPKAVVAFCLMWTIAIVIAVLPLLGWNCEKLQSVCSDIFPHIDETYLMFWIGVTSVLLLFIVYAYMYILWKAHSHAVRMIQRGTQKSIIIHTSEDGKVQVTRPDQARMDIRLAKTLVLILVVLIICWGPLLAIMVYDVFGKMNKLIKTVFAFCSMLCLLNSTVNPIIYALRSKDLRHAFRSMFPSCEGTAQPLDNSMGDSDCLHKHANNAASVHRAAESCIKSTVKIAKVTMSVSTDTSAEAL
UniProt P34972, whole entry: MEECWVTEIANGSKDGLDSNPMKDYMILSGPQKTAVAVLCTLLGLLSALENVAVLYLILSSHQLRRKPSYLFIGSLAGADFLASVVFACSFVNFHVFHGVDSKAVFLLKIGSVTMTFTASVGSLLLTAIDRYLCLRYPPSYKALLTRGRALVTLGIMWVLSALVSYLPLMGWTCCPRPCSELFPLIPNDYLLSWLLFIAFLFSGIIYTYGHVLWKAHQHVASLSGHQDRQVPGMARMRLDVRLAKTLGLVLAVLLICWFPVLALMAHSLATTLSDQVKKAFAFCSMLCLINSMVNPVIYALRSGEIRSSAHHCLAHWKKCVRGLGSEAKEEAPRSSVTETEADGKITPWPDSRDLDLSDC

Experiments:
[1] = target: Human CB1 receptor from Receptor Biology (hCB1) (Homo sapiens, UniProt P21554); experiment: hCB1 receptor binding (3H-CP55,940 displacement); details: read-out: hCB1 Ki; hCB1 membranes, 3H-CP55,940 radioligand; Ki=IC50/(1+[rad]/Kd)
[2] = target: human CB2 receptor from BioSignal (hCB2) (Homo sapiens, UniProt P34972); experiment: hCB2 receptor binding (3H-CP55,940 displacement); details: read-out: hCB2 Ki; hCB2 membranes, 3H-CP55,940 radioligand; Ki=IC50/(1+[rad]/Kd)

CCOc1ccc(Cc2nc3cc(C(=O)N(CC(F)(F)F)CC(F)(F)F)ccc3n2CC2COCCN2C)nc1 (centres unmarked)
Ki [1]: 5570 nM
Ki [2]: 1590 nM

CCOc1ccc(Cc2nc3cc(C(=O)N(CC(F)(F)F)CC(F)(F)F)ccc3n2CC2COCCN2C)cc1 (centres unmarked)
Ki [1]: 5570 nM
Ki [2]: 55.8 nM

CC(C)Oc1ccc(Cc2nc3cc(C(=O)N(CC(F)(F)F)CC(F)(F)F)ccc3n2C[C@H]2CCCCN2C)cc1
Ki [1]: 826 nM
Ki [2]: 13.5 nM

CCOc1ccc(C(C)c2nc3cc(C(=O)N(CC(F)(F)F)CC(F)(F)F)ccc3n2CC2CCCN2)cc1 (centres unmarked)
Ki [1]: 5180 nM
Ki [2]: 447 nM
